Test results: patent publication EP0742015A1, “Prodrugs for beta-lactamase and uses thereof” (Bristol-Myers Squibb Company, priority 1990, dated 1992)

Key:
[1] = Stability in IMDM cell growth medium at 37° C, HPLC; conditions: media used for tissue culture (IMDM), 0.5 mM
Balb C nu/nu mice = assay: Toxic effects in mice, i.v.; conditions: doses spaced 24 hr apart, repeated after 1 week
[2] = Stability in mouse plasma at 37° C, HPLC; conditions: 0.5 mM

**Q.** Which results are given for `Nc1ccc(N(CCCl)CCCl)cc1`?
**A.** t1/2 [1]: 3 min; toxic dose (Balb C nu/nu mice): 50 µg/injection; t1/2 [2]: 20 min
